For six compounds, inhibition results are on record in ChEMBL document CHEMBL4828707, “Discovery of phenyl-linked symmetric small molecules as inhibitors of the programmed cell death-1/programmed cell death-ligand 1 interaction” (Eur J Med Chem, 2021).

Chains of the proteins cited; added tags and fusions are not shown. Lines headed by an entry give the natural chain unless they say otherwise; changes in a name come on top.
UniProt Q15116: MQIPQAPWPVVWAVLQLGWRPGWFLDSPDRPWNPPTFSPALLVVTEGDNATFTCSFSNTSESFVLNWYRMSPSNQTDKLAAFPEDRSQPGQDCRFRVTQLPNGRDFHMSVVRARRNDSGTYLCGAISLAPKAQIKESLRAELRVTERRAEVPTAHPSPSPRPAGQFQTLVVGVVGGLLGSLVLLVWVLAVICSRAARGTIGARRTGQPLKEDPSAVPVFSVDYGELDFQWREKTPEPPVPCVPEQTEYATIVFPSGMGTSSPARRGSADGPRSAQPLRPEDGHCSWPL
UniProt Q9NZQ7: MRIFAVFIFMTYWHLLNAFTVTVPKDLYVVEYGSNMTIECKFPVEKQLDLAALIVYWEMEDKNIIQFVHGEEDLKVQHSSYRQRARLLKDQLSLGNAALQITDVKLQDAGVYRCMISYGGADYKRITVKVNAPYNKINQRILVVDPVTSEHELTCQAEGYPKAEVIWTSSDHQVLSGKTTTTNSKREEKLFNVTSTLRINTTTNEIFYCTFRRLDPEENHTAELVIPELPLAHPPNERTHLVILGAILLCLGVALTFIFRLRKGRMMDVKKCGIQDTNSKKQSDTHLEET

Test [1] has as its target T1, Programmed cell death protein 1/Programmed cell death 1 ligand 1 (Homo sapiens, UniProt Q15116+Q9NZQ7). In words: Inhibition of Tag2-PD1/Tag1-PD-L1 (unknown origin) protein-protein interaction preincubated for 15 mins followed by addition of anti-Tag1-Eu3+ and anti-Tag2-XL665 at 1 uM measured after 2 hrs in dark by HTRF assay. In kind it is protein-complex assay. Conditions: time 135.0 min. For orientation: Time-resolved FRET reads energy transfer from a long-lived donor to a nearby acceptor.

Test [2] has as its target T1, Programmed cell death protein 1/Programmed cell death 1 ligand 1. In words: Inhibition of Tag2-PD1/Tag1-PD-L1 (unknown origin) protein-protein interaction preincubated for 15 mins followed by addition of anti-Tag1-Eu3+ and anti-Tag2-XL665 at 5 uM measured after 2 hrs in dark by HTRF assay. In kind it is protein-complex assay. To be noted: time 135.0 min.

`COc1cc(-c2cccc(-c3ccc4c(c3)OCCO4)c2C)ccc1CNCCO` gave an inhibition in test [1] of 94%.

In test [2], `Cc1c(-c2ccc3c(c2)OC(=O)N(CCO)C3)cccc1-c1ccc2c(c1)OCCO2` gave an inhibition of 25.2%.

Take `Cc1c(-c2ccc3c(c2)NCC(=O)N(CCO)C3)cccc1-c1ccc2c(c1)OCCO2`: in test [2], the inhibition amounted to 12.5%.

`Cc1c(-c2ccc3c(c2)OC(=O)N(CC(=O)O)C3)cccc1-c1ccc2c(c1)OCCO2`: the inhibition in test [2] was found to be 0.54%.

Take `Cc1c(-c2ccc3c(c2)CCCN(CCO)C3)cccc1-c1ccc2c(c1)OCCO2`: the inhibition in test [2] worked out at 2.76%.

Turning to `Cc1c(-c2ccc3c(c2)OCCO3)cccc1-c1ccc(CNCCO)s1`, in test [1], the inhibition amounted to 65.4%.

By inhibition is commonly meant the drop in the measured response relative to a control, in per cent. Read a low inhibition as a response near the control.
